Data from ChEMBL document CHEMBL1121970, “Potential radiosensitizing agents. 5. 2-Substituted benzimidazole derivatives” (1982).

Tests used:
[1] = Sensitizer enhancement ratio(SER) was determined; type: functional
CHO = test: Radiosensitizing activity against chinese hamster cells was determined in the presence of the sensitizer under nitrogen at a concentration of 0.5 mM; conditions: Cricetulus griseus

O=[N+]([O-])c1ccc2[nH]c([N+](=O)[O-])nc2c1
SER [1]: 2.1 | Survivals (CHO): 4.4%
